Reference: PubChem BioAssay AID2234 (The Scripps Research Institute Molecular Screening Center, 2010)
The list shows a part of the results, in another mix than the full data. Some tests of the compounds listed are not included; inactive here does not mean inactive elsewhere. Activity calls are given as the source filed them. No stated cut-off is given here; in the data, active means inhibition above about 33%; inactive means the rest.

By UniProt entry, the sequences of proteins in these tests, tags left out.
UniProt P03206, whole entry: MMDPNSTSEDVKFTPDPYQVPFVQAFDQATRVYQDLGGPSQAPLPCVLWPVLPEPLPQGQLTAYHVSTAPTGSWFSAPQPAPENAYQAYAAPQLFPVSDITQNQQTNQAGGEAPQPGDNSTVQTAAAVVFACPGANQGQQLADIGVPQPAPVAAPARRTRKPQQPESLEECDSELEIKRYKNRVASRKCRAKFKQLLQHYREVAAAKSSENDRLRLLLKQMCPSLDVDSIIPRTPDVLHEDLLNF

Biological target: Lytic switch protein BZLF1 (Epstein-Barr virus (strain B95-8)) (UniProt P03206)
Assay: Zta-DNA interaction blockers, Epstein-Barr virus – biochemical, fluorescence polarization, single concentration, counter-screen for EBNA-1 inhibitor project, primary screen (AID 2234)
Conditions: ZTA-DNA binding, at 11 µM, active compounds read high

| SMILES | inhibition |
| --- | --- |
| COc1cccc(C(=O)NCC2(N3CCCCC3)CCCCC2)c1 | inactive: -6.19% |
| COc1ccc(Cl)cc1C(=O)NCC1(N(C)C)CCCCC1 | inactive: 13.4% |
| O=C(NCC1(N2CCCCC2)CCCCC1)c1cccc(Cl)c1 | inactive: -4.81% |
| CN(C)C1(CNC(=O)c2ccc(Br)cc2)CCCCC1 | inactive: 3.52% |
| COc1cc(C(=O)NCC2(N(C)C)CCCCC2)c([N+](=O)[O-])cc1OC | inactive: 1.72% |
| COc1ccc(Br)c(C(=O)NCC2(N3CCCCC3)CCCCC2)c1 | inactive: -3.59% |
| CN(C)c1cccc(C(=O)NCC2(N(C)C)CCCCC2)c1 | inactive: -2.9% |
| CC(C)Oc1ccc(C(=O)NCC2(N(C)C)CCCCC2)cc1 | inactive: -13.4% |
| O=C(OC1CN2CCC1CC2)C(CO)(c1ccccc1)c1ccccc1 (centres undefined) | inactive: 8.78% |
| CC(C)N1C(=O)CC2(CCN(CCOC(=O)C(O)(c3ccccc3)c3ccccc3)CC2)C1=O | inactive: 0.92% |
| CCN(CC)CC(C)C(C)OC(=O)C(O)(c1ccccc1)c1ccccc1 (centres undefined) | inactive: 7.91% |
| COc1cc(SC)ccc1C(=O)NCC1(N(C)C)CCCCC1 | inactive: -8.17% |
| Cc1ccc(C(=O)NCC2(N3CCCCC3)CCCCC2)cc1 | inactive: 11.8% |
| O=C(NCC1(N2CCCCC2)CCCCC1)c1cc([N+](=O)[O-])ccc1Cl | inactive: -10.6% |
| CN1[C@@H]2CC[C@H]1CC(OC(=O)C(O)(c1ccccc1)c1ccccc1)C2 (some centres undefined) | inactive: -11.1% |
| C=CCN1CCN(CCOC(=O)C(O)(c2ccccc2)c2ccccc2)CC1 | inactive: -3.61% |
| O=C(NCC1(N2CCCCC2)CCCCC1)c1cc(F)c(F)cc1Cl | inactive: -7.08% |
| CCN1CCCC(OC(=O)C2(O)c3ccccc3C=Cc3ccccc32)C1 (centres undefined) | inactive: 1.15% |
| Cc1cc(C(=O)NCC2(N3CCCCC3)CCCCC2)ccc1[N+](=O)[O-] | inactive: -1.89% |
| O=C(NCC1(N2CCCCC2)CCCCC1)c1cccc(Br)c1 | inactive: 8.02% |
| COc1ccc(C(=O)NCC2(N(C)C)CCCCC2)cc1 | inactive: 0.47% |
| Cc1ccccc1C(=O)NCC1(N2CCCCC2)CCCCC1 | inactive: 1.37% |
| CN(C)c1ccc(C(=O)NCC2(N(C)C)CCCCC2)cc1 | inactive: -0.14% |
| CN(C)C1CCCC1OC(=O)C(O)(c1ccccc1)c1ccccc1 (centres undefined) | inactive: 10.2% |
